From US10000743B2, “2-deoxy-scyllo-inosose reductase” (Asahi Kasei Chemicals Corporation, priority 2013, dated 2018)

System: NADH
Assay: purified protein, by the assay type
Conditions: other: 0.1M Tris-HCl, pH 8.0

For “DOI reductase from Burkholderia terrae strain AKC-020 (Paraburkholderia terrae)”, the Km was 0.04 mM (0.1M Tris-HCl, pH 8.0) mM.
